Assay results: PMC11204507, “Mechanistic Insights into the Neurotoxicity of 2,5-Dimethoxyphenethylamines (2C) and Corresponding N-(2-methoxybenzyl)phenethylamine (NBOMe) Drugs” (Journal of Xenobiotics, 2024)

Protein sequences, listed by entry. Tags and fused reporters are not part of them.
UniProt P21397, whole entry: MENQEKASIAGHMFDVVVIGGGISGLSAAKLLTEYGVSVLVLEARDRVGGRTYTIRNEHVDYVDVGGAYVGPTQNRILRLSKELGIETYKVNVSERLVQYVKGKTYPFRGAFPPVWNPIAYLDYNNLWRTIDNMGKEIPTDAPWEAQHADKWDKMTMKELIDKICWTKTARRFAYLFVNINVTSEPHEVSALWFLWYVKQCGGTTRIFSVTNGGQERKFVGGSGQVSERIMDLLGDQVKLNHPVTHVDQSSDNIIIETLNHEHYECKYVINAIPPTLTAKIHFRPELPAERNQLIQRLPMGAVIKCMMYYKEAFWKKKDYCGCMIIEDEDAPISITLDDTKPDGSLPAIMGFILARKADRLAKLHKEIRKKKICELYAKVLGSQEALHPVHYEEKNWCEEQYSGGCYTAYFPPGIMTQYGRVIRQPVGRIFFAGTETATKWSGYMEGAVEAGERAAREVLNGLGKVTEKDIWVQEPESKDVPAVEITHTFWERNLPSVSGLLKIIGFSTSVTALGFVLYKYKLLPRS

Target: hMAO-A (Homo sapiens, UniProt P21397)
Assay: hMAO inhibitory activity, kynuramine to 4-hydroxyquinoline
Settings: 10 µM, kynuramine substrate

C#CCN(C)CCCOc1ccc(Cl)cc1Cl [clorgyline, reference compound]
percentage of inhibition of hMAO-A: 98.2%
